From PMC8011926 (Journal of Medicinal Chemistry, 2020)

How the values were obtained:
[1] = molecular target: T1, NOP receptor (NOP-RLuc/Gβ1-RGFP) (Homo sapiens, UniProt P41146); assay: NOP/G protein interaction, BRET assay in membranes; assay type: biochemical; conditions: Emax of ligand / Emax of N/OFQ(1–13)-NH2; mean ± sem of five experiments in duplicate
T1 construct: expressed in transfected cells; host or cells: HEK293 (enriched plasma membranes)
Protocol: For this study, human embryonic kidney (HEK293) cells, permanently co-expressing the different pairs of fusion proteins NOP-RLuc/Gβ1-RGFP and NOP-RLuc/β-arrestin 2-RGFP, and SH-SY5Y cells stably, co-expressing the different pairs of fusion proteins mu-RLuc/Gβ1-RGFP and mu-RLuc/β-arrestin 2-RGFP or delta-RLuc/Gβ1-RGFP and delta-RLuc/β-arrestin 2-RGFP, were used. Cells were prepared and cultured, as described previously.[19],[23] Cells were grown in Dulbecco’s modified Eagle’s medium (DMEM)/HAMS F12 (1:1) supplemented with 10% fetal bovine serum, penicillin G (100 units/mL), streptomycin (100 μg mL^–1), L-glutamine (2 mM), fungizone (1 μg mL^–1), geneticin (G418; 200 μg mL^–1), and hygromycin B (100 μg mL^–1) in a humidified atmosphere of 5% CO2 at 37 °C. For G protein experiments, enriched plasma membrane aliquots from transfected cells were prepared by differential centrifugation; cells were detached with phosphate buffered saline (PBS)/EDTA solution (1 mM, pH 7.4 NaOH), then, after 5 min 500g centrifugation, Dounce-homogenized (30 strokes) in cold homogenization buffer (tris(hydroxymethyl)aminomethane 5 mM, EGTA 1 mM, DTT 1 mM, pH 7.4 HCl) in the presence of sucrose (0.32 M). Three following centrifugations were performed at 10 min 1000g (4 °C), and the supernatants were kept. […] The protein concentration in membrane preparations was determined using the QPRO-BCA kit (Cyanagen Srl, Bologna, IT) and the Ensight (PerkinElmer, Waltham, USA) in the spectrophotometer mode.
Luminescence in membranes was recorded in 96-well untreated white opaque microplates, while in whole cells, it was recorded in 96-well sterile poly-D-lysine-coated white opaque microplates (PerkinElmer, Waltham, MA, USA) using the luminometer Victor 2030 (PerkinElmer, Waltham, MA, USA). […] Coelenterazine at a final concentration of 5 μM was injected 15 min prior to reading the cell plate. Different concentrations of ligands in 20 μL of PBS–BSA 0.01% were added and incubated 5 min before reading luminescence. […] The BRET ratio was measured 15 min after agonist injection. […]
(§1) The pharmacological terminology adopted in this paper is consistent with IUPHAR recommendations.[68] All data are expressed as the mean ± sem of five independent experiments made in duplicate. […] Ligand efficacy was expressed as intrinsic activity (α), calculated as the ratio between the Emax of the ligand and that of the standard agonist. Count per second (CPS) measured for the RGFP and RLuc light emitted using 510(10) and 460(25) filters (PerkinElmer, Waltham, MA), respectively, was used to calculate the BRET ratio. All data are expressed as the stimulated BRET ratio, that is, the ratio between CPS from RGFP and RLuc in the presence of ligands minus the BRET ratio in vehicle-treated wells. […]

[2] = molecular target: T2, NOP receptor (NOP-RLuc/β-arrestin 2-RGFP) (Homo sapiens, UniProt P41146); assay: NOP/β-arrestin 2 interaction, BRET assay in whole cells; assay type: cell-based; conditions: Emax of ligand / Emax of N/OFQ(1–13)-NH2; mean ± sem of five experiments in duplicate
T2 construct: expressed in transfected cells; host or cells: HEK293 (whole cells)
Protocol: For this study, human embryonic kidney (HEK293) cells, permanently co-expressing the different pairs of fusion proteins NOP-RLuc/Gβ1-RGFP and NOP-RLuc/β-arrestin 2-RGFP, and SH-SY5Y cells stably, co-expressing the different pairs of fusion proteins mu-RLuc/Gβ1-RGFP and mu-RLuc/β-arrestin 2-RGFP or delta-RLuc/Gβ1-RGFP and delta-RLuc/β-arrestin 2-RGFP, were used. Cells were prepared and cultured, as described previously.[19],[23] Cells were grown in Dulbecco’s modified Eagle’s medium (DMEM)/HAMS F12 (1:1) supplemented with 10% fetal bovine serum, penicillin G (100 units/mL), streptomycin (100 μg mL^–1), L-glutamine (2 mM), fungizone (1 μg mL^–1), geneticin (G418; 200 μg mL^–1), and hygromycin B (100 μg mL^–1) in a humidified atmosphere of 5% CO2 at 37 °C. For G protein experiments, enriched plasma membrane aliquots from transfected cells were prepared by differential centrifugation; cells were detached with phosphate buffered saline (PBS)/EDTA solution (1 mM, pH 7.4 NaOH), then, after 5 min 500g centrifugation, Dounce-homogenized (30 strokes) in cold homogenization buffer (tris(hydroxymethyl)aminomethane 5 mM, EGTA 1 mM, DTT 1 mM, pH 7.4 HCl) in the presence of sucrose (0.32 M). Three following centrifugations were performed at 10 min 1000g (4 °C), and the supernatants were kept. Two 20 min 24,000g (4 °C) subsequent centrifugations (the second in the absence of sucrose) were performed for separating enriched membranes that, after discarding the supernatant, were kept in ultrapure water at −80 °C.[67] The protein concentration in membrane preparations was determined using the QPRO-BCA kit (Cyanagen Srl, Bologna, IT) and the Ensight (PerkinElmer, Waltham, USA) in the spectrophotometer mode.
Luminescence in membranes was recorded in 96-well untreated white opaque microplates, while in whole cells, it was recorded in 96-well sterile poly-D-lysine-coated white opaque microplates (PerkinElmer, Waltham, MA, USA) using the luminometer Victor 2030 (PerkinElmer, Waltham, MA, USA). For the determination of receptor/G protein interactions, membranes (3 μg of protein) prepared from cells co-expressing NOP (or mu or delta)/RLuc and Gβ1/RGFP were added to wells in DPBS. For the determination of receptor/β-arrestin 2 interactions, cells co-expressing NOP (or mu or delta)/RLuc and β-arrestin 2/RGFP were plated 24 h before the experiment in poly-D-lysine-treated plates (100,000 cells/well). The cells were prepared for the experiment substituting the medium with PBS with MgCl2 (0.5 mM) and CaCl2 (0.9 mM). Coelenterazine at a final concentration of 5 μM was injected 15 min prior to reading the cell plate. Different concentrations of ligands in 20 μL of PBS–BSA 0.01% were added and incubated 5 min before reading luminescence. […] The BRET ratio was measured 15 min after agonist injection. […]
as §1

NOP receptor = assay: NOP bias factor, G protein vs β-arrestin 2 (Black–Leff operational model); conditions: ΔΔlog(τ/KA) G protein minus β-arrestin 2; N/OFQ(1–13)-NH2 as standard unbiased ligand; positive = toward G protein; mean of at least five experiments
Text: The concentration–response curves of each compound were fitted to the Black–Leff operational model, described by Nagi and Pineyro[70] [drawing 3] where [A] is the agonist concentration, the maximal response of the system is given by Em, n is a fitting parameter for the slope, the affinity of the agonist is represented by the equilibrium dissociation constant of the agonist–receptor complex (KA), and the efficacy of the agonist is defined by τ. τ and KA are descriptive parameters of intrinsic efficacy and binding affinity and may be directly obtained by fitting the experimental data to the operational equation and can be expressed as “transduction coefficients” log(τ/KA). The relative efficiency of agonists producing activation of any pathways can thus be quantified with a “normalized” transduction coefficient, namely Δlog(τ/KA). Finally, the bias factors were calculated as difference between Δlog(τ/KA) values for a given agonist between the pathways (G protein and β-arrestin 2) [drawing 4]
Bias factors are expressed as the mean of at least five independent experiments, and CL95% are indicated. […]

| Compound | NOP/G protein α ± sem (intrinsic activity) [1] | NOP/β-arrestin 2 α ± sem (intrinsic activity) [2] | bias factor (CL95%), NOP (NOP receptor) |
| --- | --- | --- | --- |
| C[C@H](NC(=O)CNC(=O)[C@@H](NC(=O)[C@H](Cc1ccccc1)NC(=O)CNC(=O)CNC(=O)[C@@H](N)CC1CCCCC1)[C@@H](C)O)C(=O)N[C@@H](CCCNC(=N)N)C(=O)N[C@@H](CCCCN)C(=O)N[C@@H](CO)C(=O)N[C@@H](C)C(=O)N[C@@H](CCCNC(=N)N)C(=O)N[C@@H](CCCCN)C(N)=O [Compound 22, [Cha^1]N/OFQ(1–13)-NH2] | 1.08 ± 0.04 |  |  |
| C[C@H](NC(=O)CNC(=O)[C@@H](NC(=O)[C@H](Cc1c[nH]c2ccccc12)NC(=O)CNC(=O)CNC(=O)[C@@H](N)Cc1ccccc1)[C@@H](C)O)C(=O)N[C@@H](CCCNC(=N)N)C(=O)N[C@@H](CCCCN)C(=O)N[C@@H](CO)C(=O)N[C@@H](C)C(=O)N[C@@H](CCCNC(=N)N)C(=O)N[C@@H](CCCCN)C(N)=O [Compound 24, [Trp^4]N/OFQ(1–13)-NH2] | 1.01 ± 0.01 |  |  |
| [AC3C^7]N/OFQ-NH2 (FGGFTG; AC3C at 7; C-terminal amide) [Compound 36] |  | 1.01 ± 0.04 |  |
| [AC5C^7]N/OFQ-NH2 (FGGFTG; AC5C at 7; C-terminal amide) [Compound 37] |  | 1.02 ± 0.03 |  |
| [AC5C^11]N/OFQ-NH2 (FGGFTGARKS; AC5C at 11; C-terminal amide) [Compound 38] | 1.09 ± 0.04 | 1.05 ± 0.03 |  |
| [Aib^7]N/OFQ-NH2 (FGGFTG; Aib at 7; C-terminal amide) [Compound 34] |  | 0.98 ± 0.05 | 0.46 (−0.08–1.01) |
| [Aib^11]N/OFQ-NH2 (FGGFTGARKS; Aib at 11; C-terminal amide) [Compound 35] | 1.07 ± 0.03 | 0.95 ± 0.03 |  |
